{"source": "paper PMC6273584", "about": "“Synthesis of Thiazolo[5,4-f]quinazolin-9(8H)-ones as Multi-Target Directed Ligands of Ser/Thr Kinases” (Molecules, 2016)", "origin": "cited, not measured here", "key": {"[1]": {"tested_on": "GSK-3", "conditions": "Figure 2, earlier work, cited from earlier work"}, "[2]": {"tested_on": "CDK1", "parameters": "method as in PMID 17981370, PMID 16644220", "conditions": "Figure 2; earlier work; cited from earlier work"}}}
{"smiles": "CCn1cnc2ccc3nc(C(=N)OCc4ccccc4)sc3c2c1=O", "note": "[II]", "values": [{"measurement": "GSK-3 IC50", "setting": "[1]", "value": "micromolar range"}, {"measurement": "IC50", "setting": "[1]; read-out: GSK-3 IC50", "value": 170, "unit": "nM"}]}
{"smiles": "CC(C)n1cnc2ccc3nc(C(=N)OCc4ccccc4)sc3c2c1=O", "note": "[I]", "values": [{"measurement": "CDK1 IC50", "setting": "[2]", "value": "micromolar range"}, {"measurement": "IC50", "setting": "[2]", "value": 150, "unit": "nM"}]}
